Holding throughout (type): cell-based
The target of one test is adenosine 1 receptor (Homo sapiens, UniProt P30542). In words: Agonist activity against adenosine 1 receptor (CHO cells, forskolin-enhanced cAMP/SPAP reporter). The settings on record: CHO cells transfected with human receptor; forskolin-enhanced cAMP via SPAP; mean of all the versions tested. Here is the method: (§1) (1) Agonist activity against adenosine 2a, adenosine 1 and adenosine 3 receptor subtypes.
(§2) The effect of test compounds was determined by their effects on basal levels of cAMP (A2a) or on forskolin-enhanced cAMP (A1 and A3) as reflected by changes in levels of SPAP.

Amino acid sequences for entries named in this document (tags omitted).
UniProt P30542, whole entry: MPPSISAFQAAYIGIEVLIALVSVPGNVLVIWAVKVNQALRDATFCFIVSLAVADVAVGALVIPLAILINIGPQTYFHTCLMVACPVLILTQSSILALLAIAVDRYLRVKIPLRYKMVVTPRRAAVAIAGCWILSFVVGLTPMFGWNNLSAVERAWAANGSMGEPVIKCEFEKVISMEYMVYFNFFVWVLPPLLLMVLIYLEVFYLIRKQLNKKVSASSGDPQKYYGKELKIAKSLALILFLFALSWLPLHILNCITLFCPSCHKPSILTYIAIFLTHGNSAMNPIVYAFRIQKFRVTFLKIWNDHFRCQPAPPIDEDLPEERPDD
UniProt P0DMS8, whole entry: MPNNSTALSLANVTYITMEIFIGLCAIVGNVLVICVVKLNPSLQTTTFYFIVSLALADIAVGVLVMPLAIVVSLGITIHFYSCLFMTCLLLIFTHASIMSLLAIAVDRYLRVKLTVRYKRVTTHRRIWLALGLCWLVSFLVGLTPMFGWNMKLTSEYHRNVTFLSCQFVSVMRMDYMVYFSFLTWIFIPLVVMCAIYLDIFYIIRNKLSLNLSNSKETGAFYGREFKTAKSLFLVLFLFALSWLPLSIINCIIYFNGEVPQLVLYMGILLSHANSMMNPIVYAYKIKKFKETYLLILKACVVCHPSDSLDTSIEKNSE

The target in the next test is adenosine 2a receptor (Homo sapiens, UniProt P29274). In words: Agonist activity against adenosine 2a receptor (CHO cells, cAMP/SPAP reporter). The settings on record: CHO cells transfected with human receptor; basal cAMP via SPAP; mean of all the versions tested. The procedure: as §1, §2
The next test concerns the target adenosine 3 receptor (Homo sapiens, UniProt P0DMS8). Put plainly: Agonist activity against adenosine 3 receptor (CHO cells, forskolin-enhanced cAMP/SPAP reporter). The settings on record: CHO cells transfected with human receptor; forskolin-enhanced cAMP via SPAP; mean of all the versions tested. The procedure:
as §1, §2

On to `CCn1nnc(C2OC(n3cnc4c(N)nc(NC(CO)Cc5ccccc5)nc43)C(O)C2O)n1` [Example 11, (2R,3R,4S,5R)-2-[6-Amino-2-(1S-hydroxymethyl-2-phenyl-ethylamino)-purin-9-yl]-5-(2-ethyl-2H-tetrazol-5-yl)-tetrahydro-furan-3,4-diol], for which the “A1 EC50 as a ratio of that of NECA” value at adenosine 1 receptor was 38.1. Moreover, the “A2a EC50 as a ratio of that of NECA” value on adenosine 2a receptor is on record as 0.109. On adenosine 3 receptor, the “A3 EC50 as a ratio of that of NECA” value was more than 356.

These data come from US6528494B2 (priority 1996, dated 2003).
